Laboratory results: ChEMBL document CHEMBL5257075, “Design, synthesis and biological evaluation of quinazoline SOS1 inhibitors” (Bioorg Med Chem Lett, 2023)

Biological target: T1, Son of sevenless homolog 1 (Homo sapiens) (UniProt Q07889)
T1 sequence (whole entry): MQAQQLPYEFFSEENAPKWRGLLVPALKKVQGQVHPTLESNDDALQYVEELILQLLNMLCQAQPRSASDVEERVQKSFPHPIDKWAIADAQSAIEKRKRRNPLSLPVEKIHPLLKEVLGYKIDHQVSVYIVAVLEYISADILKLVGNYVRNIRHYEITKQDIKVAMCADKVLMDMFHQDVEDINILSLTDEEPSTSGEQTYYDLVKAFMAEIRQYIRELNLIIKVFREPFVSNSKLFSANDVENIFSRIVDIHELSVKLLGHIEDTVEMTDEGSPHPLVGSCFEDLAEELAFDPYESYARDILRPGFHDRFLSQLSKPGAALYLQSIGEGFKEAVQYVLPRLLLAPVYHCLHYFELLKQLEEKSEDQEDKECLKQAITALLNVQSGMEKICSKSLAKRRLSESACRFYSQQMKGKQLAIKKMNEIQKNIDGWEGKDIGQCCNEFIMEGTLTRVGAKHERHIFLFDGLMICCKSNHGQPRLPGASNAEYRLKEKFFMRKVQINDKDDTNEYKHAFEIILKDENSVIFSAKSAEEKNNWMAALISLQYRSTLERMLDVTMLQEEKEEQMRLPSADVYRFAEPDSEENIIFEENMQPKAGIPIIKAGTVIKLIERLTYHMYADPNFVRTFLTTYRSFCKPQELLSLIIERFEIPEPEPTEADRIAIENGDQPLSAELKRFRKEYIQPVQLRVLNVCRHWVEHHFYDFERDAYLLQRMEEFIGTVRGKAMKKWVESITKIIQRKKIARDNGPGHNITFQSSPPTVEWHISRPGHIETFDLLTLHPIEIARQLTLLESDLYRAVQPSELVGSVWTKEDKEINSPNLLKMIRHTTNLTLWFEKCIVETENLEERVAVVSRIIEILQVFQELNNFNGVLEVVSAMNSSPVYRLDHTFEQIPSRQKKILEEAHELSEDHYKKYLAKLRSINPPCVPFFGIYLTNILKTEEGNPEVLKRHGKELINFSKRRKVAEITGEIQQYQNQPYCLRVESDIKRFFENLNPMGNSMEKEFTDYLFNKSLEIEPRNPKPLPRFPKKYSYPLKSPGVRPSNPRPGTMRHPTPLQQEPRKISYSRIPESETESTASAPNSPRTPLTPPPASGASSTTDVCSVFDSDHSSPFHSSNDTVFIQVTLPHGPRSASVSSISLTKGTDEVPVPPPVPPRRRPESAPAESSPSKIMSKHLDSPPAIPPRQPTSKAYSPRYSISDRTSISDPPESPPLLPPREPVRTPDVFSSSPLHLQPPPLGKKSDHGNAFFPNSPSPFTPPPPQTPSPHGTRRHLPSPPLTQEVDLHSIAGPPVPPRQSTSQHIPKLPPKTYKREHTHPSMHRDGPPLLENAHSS
Assay: Inhibition of SOS1 (unknown origin) at 500 nM

`CNCc1ccccc1-c1csc([C@@H](C)Nc2nc(C)nc3cc(OC)c(OC)cc23)c1` [BAY-293] gave an inhibition of 99.7%.
